Literature values as cited in publication PMC10673624 (Current research in chemical biology, 2023).

By UniProt entry, the sequences of proteins in these tests, tags left out. Where a name states a change or a piece, a line headed by the entry shows the natural chain unless it says otherwise.
UniProt P49761: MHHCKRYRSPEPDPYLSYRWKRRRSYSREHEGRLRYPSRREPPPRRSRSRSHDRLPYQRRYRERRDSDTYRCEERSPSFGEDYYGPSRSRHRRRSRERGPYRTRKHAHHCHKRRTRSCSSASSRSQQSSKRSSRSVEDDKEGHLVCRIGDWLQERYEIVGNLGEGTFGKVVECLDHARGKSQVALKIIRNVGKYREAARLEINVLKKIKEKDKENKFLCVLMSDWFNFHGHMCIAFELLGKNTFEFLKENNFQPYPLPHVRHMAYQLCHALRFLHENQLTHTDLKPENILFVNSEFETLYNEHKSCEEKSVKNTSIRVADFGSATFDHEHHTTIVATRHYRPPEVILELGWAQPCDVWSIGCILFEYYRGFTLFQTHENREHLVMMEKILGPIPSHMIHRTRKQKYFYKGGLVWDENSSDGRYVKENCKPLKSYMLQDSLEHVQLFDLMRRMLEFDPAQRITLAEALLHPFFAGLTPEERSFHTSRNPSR

Biological target: CLK3 (Homo sapiens, UniProt P49761)
Conditions: read-out: CLK Activities (IC50 nM), ref Nemec et al., 2019; cited from earlier work

SMILES: Cn1cc(-c2ccc3occ(-c4cccc(-c5ccncc5)c4)c3n2)cn1 [Compound 1]
- IC50: 12 nM
